Patent US20230407304A1, “USE OF MICRORNA INHIBITION TO PREVENT AND TREAT OSTEOARTHRITIS AND OTHER INFLAMMATORY DISEASES” (VIRGINIA COMMONWEALTH UNIVERSITY, priority 2020, published 2023)

What was measured:
[1] = test system: rat articular chondrocytes (rArCs); test: WNT/β-catenin agonist or antagonist treatment of rArCs with or without TNF-α; assay type: cell-based
[2] = test system: rat articular chondrocytes (rArCs); test: WNT/β-catenin agonist or antagonist treatment of rArCs with or without IL-1β; assay type: cell-based

lithium chloride
MMP-13 production ([1]; LiCl 5 mM or 10 mM plus 10 ng/mL TNF-α): no differences in MMP-13 production
MMP-13 production ([1]; compound alone, no TNF-α): no differences in MMP-13 production
MMP-13 production ([2]; compound alone, increasing concentrations, no IL-1β): decrease in MMP-13 production
MMP-13 production ([2]; compound plus 10 ng/mL IL-1β): decrease in MMP-13 production
